# Tested on: NADP^+
# Assay: purified protein, by the assay type
# Settings: malate fixed 5 mM, 5 mM MgCl2, pH 7.5, 30.0 °C
Substance,Km (other: BbMaeB) [µM],Km (other: EcMaeB) [µM]
BbMaeB (Bdellovibrio bacteriovorus),18.0 ± 1.52,–
EcMaeB (Escherichia coli K-12),–,24.9 ± 1.94

# — publication PMC12704298, “Divergent acetyl-CoA binding modes mediate allosteric inhibition of bacterial hybrid-type malic enzymes” (The Journal of Biological Chemistry, 2025)
